## AlphaSeq binding of Ab-14 heavy chain variants to a spike HR2 peptide

All variants were tested on one target, the spike HR2 peptide PDVDLGDISGINAS (SARS-CoV-2).

Each scFv is VH, a 15-residue (Gly4Ser)3 linker, VL, as in the parent Ab-14, and differs from it in the CDRs of the heavy chain only.
VH: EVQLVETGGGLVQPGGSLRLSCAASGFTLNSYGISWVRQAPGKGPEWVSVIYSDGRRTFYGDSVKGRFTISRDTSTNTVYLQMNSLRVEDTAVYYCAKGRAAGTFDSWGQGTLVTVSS
VL: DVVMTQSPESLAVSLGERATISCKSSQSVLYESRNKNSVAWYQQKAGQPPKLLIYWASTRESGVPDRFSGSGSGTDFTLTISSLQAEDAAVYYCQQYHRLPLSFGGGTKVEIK

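The starting antibody came from a phage panning campaign against this peptide. Designed CDR sequences, proposed from the first random library and measured here. Their group label is 14H_GP_HC (GP: Gaussian process model; HC: hill climbing; a sequence that several methods proposed may carry one label only). In AlphaSeq, yeast of one mating type display the scFv and yeast of the other type display the target. Pairs that bind mate more often; barcode pairs of the diploids are counted by sequencing. Each replicate has its own calibration line, from reference interactions of the BCL2 family. The assay was run in six technical replicates.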

Changes read parent residue, position, new residue, counted from the first residue of the VH shown. Affinities are written as log10 Kd with Kd in nM; a lower number is a better binder. A mean of the replicates is given; it leaves out those without a signal. "nd" means that the variant was in the library but no mating with the target was seen in that replicate; the authors take this as a sign of poor binding, and no number exists. Values of this round are not directly comparable with the first-round values of the same sequences. In the paper, a design with two or fewer of six values counts as a poor binder. Background: pairings of all heavy chain designs with three empty control strains gave a value in 1% of cases (median 2.08, 5th percentile 0.84). Values in that range, when seen in few replicates, are hard to tell from nonspecific mating. Also given: how often the same scFv was detected with the empty control strains, with their mean in brackets.

changes	log10 Kd, replicates	mean log10 Kd (nM)	signal with controls
G26N/T28D/A101W	nd / nd / 3.27 / 1.27 / 1.26 / 1.25	1.76	0 of 18
T28D/T104S/D106W	0.97 / 0.57 / nd / 0.60 / 0.89 / 0.25	0.66	1 of 18 (1.58)
S31D/T58M/F59V/G61I	0.41 / nd / nd / nd / nd / nd	0.41	0 of 18
T28Q/S31D/F59M	1.34 / 1.17 / 0.53 / 1.22 / 0.77 / 1.22	1.04	1 of 18 (3.40)
T28W/S53A/R100M	nd / nd / nd / nd / nd / nd	nd	0 of 18
G61S/R100Q/A101V/T104K	nd / nd / nd / nd / nd / 0.99	0.99	0 of 18
N30D/A101S/S107R	nd / nd / nd / nd / nd / nd	nd	0 of 18
N30M/G61H/R100Q/A101L	-0.11 / nd / nd / nd / nd / 1.27	0.58	0 of 18
T28W/S53A/R100D	nd / nd / nd / 0.44 / nd / nd	0.44	1 of 18 (1.29)
T28D/A101R/D106N	nd / nd / nd / nd / nd / nd	nd	1 of 18 (1.81)
S31Q/R56K/G61S/D106T	nd / nd / nd / nd / nd / nd	nd	0 of 18
S31E/A101E/S107V	-0.01 / -0.16 / -0.14 / -0.28 / -0.29 / -0.35	-0.20	0 of 18
G61C/R100Q/A101T	2.03 / 1.82 / 1.93 / 1.86 / 2.11 / 1.71	1.91	0 of 18
F27K/S53A/G61S	0.58 / 0.60 / 0.13 / 0.13 / 0.25 / 0.74	0.41	0 of 18
N30D/R100K	nd / -1.56 / -0.61 / nd / nd / 0.08	-0.70	0 of 18
T28W/S31E/G61H/S107M	nd / nd / nd / nd / nd / 2.03	2.03	0 of 18
T28H/S31D/F59W	0.35 / 0.45 / 0.35 / 0.44 / 0.28 / 0.82	0.45	1 of 18 (2.73)
G61A/R100Q/A101L/S107D	0.15 / 0.35 / 0.61 / 0.61 / 0.36 / 0.48	0.42	0 of 18
T28E/S31Q/G61S	0.18 / 0.08 / 0.04 / -0.01 / -0.17 / -0.10	0.00	0 of 18
N30D/G61D/S63E/A101T	0.79 / 0.58 / 0.78 / 0.19 / 0.92 / 0.57	0.64	0 of 18
T28S/S31E/R100P/S107R	nd / nd / nd / nd / nd / nd	nd	0 of 18
T28D/Y32F/G61L/R100Q/A101E	0.77 / 0.59 / 1.03 / 0.62 / -0.36 / 0.59	0.54	1 of 18 (0.91)
S31N/F59A/G61Q	nd / 1.96 / nd / 0.18 / 1.76 / 0.57	1.12	0 of 18
T28D/G61D/R100L/A101L	0.09 / 0.55 / 0.19 / 0.23 / 0.40 / 0.38	0.30	0 of 18
T28D/Y32F/G61L/R100Q/A101V	0.55 / 0.07 / 0.18 / 0.27 / -0.10 / 0.40	0.23	0 of 18
S31D/F59M/D106T	nd / nd / nd / nd / nd / nd	nd	1 of 18 (2.24)
G61D/R100K/A101L/S107R	nd / 2.18 / nd / 0.93 / nd / nd	1.56	0 of 18
T28S/S31D/F59E	0.67 / 1.11 / 0.45 / 0.50 / 0.90 / 1.19	0.80	1 of 18 (2.06)
R56V/G61I/A101I	0.60 / 1.04 / nd / 0.93 / 1.47 / nd	1.01	1 of 18 (1.20)
T28Q/S31D/G61K	1.00 / 0.39 / 1.01 / 0.87 / 0.67 / 0.57	0.75	0 of 18
G61S/R100V/A101V	-0.20 / -0.32 / -0.64 / -0.40 / -0.35 / -0.60	-0.42	0 of 18
N30E/G61D/R100Q/A101C	nd / nd / 1.64 / nd / nd / 3.03	2.33	1 of 18 (2.67)
T28D/S63D/T104H/D106K	nd / nd / nd / nd / nd / nd	nd	0 of 18
S31E/A101H/S107E	0.11 / -0.40 / 0.31 / -0.46 / -0.28 / -0.74	-0.24	0 of 18
T28D/G103N/S107Q	nd / nd / 2.78 / nd / nd / nd	2.78	0 of 18
T28A/G61D/R100Q	1.40 / 1.73 / 1.61 / nd / 1.85 / 1.20	1.56	0 of 18
G26D/S31E/G103V/S107V	nd / nd / nd / nd / nd / nd	nd	0 of 18

4 of these entries, quoted again:

changes	log10 Kd, replicates	mean log10 Kd (nM)	signal with controls
S31Q/R56K/G61S/D106T	nd / nd / nd / nd / nd / nd	nd	0 of 18
G61A/R100Q/A101L/S107D	0.15 / 0.35 / 0.61 / 0.61 / 0.36 / 0.48	0.42	0 of 18
S31D/T58M/F59V/G61I	0.41 / nd / nd / nd / nd / nd	0.41	0 of 18
T28D/G103N/S107Q	nd / nd / 2.78 / nd / nd / nd	2.78	0 of 18

From the AlphaSeq antibody data of Li et al. 2023 (doi:10.1038/s41467-023-39022-2), copy in the FLAb collection.